Laboratory results as given in PubChem BioAssay (Tox21).
Where “and” joins values, the source holds several entries; their conditions need not be identical. Identical values can stand only once. The entries are a selection whose mix differs from that of the whole data set. Records with an inconclusive call do not appear. Calls of active or inactive are those of the source. Calls follow the shape of the full dose curve.

Amino acid sequences for entries named in this document (tags omitted). A change or cut given only in a name is not applied to a line headed by its entry.
UniProt P22303: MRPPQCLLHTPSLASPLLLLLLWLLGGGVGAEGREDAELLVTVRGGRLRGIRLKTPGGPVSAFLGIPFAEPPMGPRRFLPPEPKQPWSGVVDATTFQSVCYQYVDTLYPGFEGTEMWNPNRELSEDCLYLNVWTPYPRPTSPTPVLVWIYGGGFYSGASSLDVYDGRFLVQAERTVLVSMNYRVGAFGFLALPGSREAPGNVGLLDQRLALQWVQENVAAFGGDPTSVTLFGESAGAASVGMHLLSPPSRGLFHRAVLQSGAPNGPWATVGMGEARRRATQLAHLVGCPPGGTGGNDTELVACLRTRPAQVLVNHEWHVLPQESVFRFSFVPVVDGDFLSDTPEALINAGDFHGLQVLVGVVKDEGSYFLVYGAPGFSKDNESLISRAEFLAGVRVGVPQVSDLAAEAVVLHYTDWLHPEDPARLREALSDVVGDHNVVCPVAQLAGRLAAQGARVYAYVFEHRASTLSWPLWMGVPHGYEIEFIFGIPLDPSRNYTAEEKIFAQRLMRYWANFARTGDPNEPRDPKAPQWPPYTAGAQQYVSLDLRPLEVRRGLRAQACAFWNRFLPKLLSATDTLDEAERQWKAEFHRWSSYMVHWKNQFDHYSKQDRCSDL

target: Acetylcholinesterase (Homo sapiens) (UniProt P22303); test: Acetylcholinesterase (AChE) small molecule antagonists: colormetric cell-based qHTS assay (AID 1347395); conditions: SH-SY5Y cells AChE activity, colorimetric (Ellman); also: nearly all actives have a fitted effect of over 30% in size
Excerpt: National Center for Advancing Translational Sciences [NCATS]
Division of Preclinical Innovation [DPI]
U.S. Environmental Protection Agency [EPA]
National Institutes of Environmental Health Sciences [NIEHS]
National Toxicology Program [NTP]
U.S. Food and Drug Administration [FDA]
Acetylcholinesterase (AChE) is the primary cholinesterase in the body that hydrolyzes a key neurotransmitter, acetylcholine. Inhibition of AChE activity can lead to neurotoxicity. The known inhibitors include organophosphorous pesticides (OP), chemical warfare agents, drugs, and various phytochemicals.
A homogenous cell-based assay using the Amplite Colormetric acetylcholinesterase assay kit (AAT Bioquest, Sunnyvale, CA) was used to evaluate the chemicals in the Tox21 10K library that inhibit AChE activity. The assay uses 5, 5-dithiobis-(2-nitrobenzoic acid) (DTNB) to quantify the thiocholine produced from the hydrolysis of acetylthiocholine by AChE from the SH-SY5Y cells.
Tox21 Assay Protocol Summary:
For the cell-based AChE assay, 2,000 SH-SY5Y cells in 4 uL/well were dispensed into black, clear-bottom 1536-well plates using a Multidrop Combi dispenser (Thermo Scientific, MA). The assay plates were incubated overnight at 37 C to allow cells to attach to the wells, followed by the transfer of 23 nL of compound or DMSO (vehicle control) by a Pintool Station (Wako Automation, CA). The plates were incubated for 30 min at 37 C and 5% CO2, followed by the addition of 4 uL of detection cocktail solution (DTNB, acetylthiocholine) into each well using a Flying Reagent Dispenser (Beckman Coulter, CA) and then 90 min incubation at 37 C.
Potency is read from the fitted curve at half-maximal effect.

SMILES | Potency
COc1ccc2cc3[n+](cc2c1OC)CCc1cc2c(cc1-3)OCO2 | active: 285 nM and active: 2.45 µM
Nc1c2ccccc2nc2ccccc12 | active: 556 nM and active: 871 nM
CCN(CC)CCCC(C)Nc1c2ccc(Cl)cc2nc2ccc(OC)cc12 (stereo unspecified) | active: 24.5 µM
c1ccc(C[n+]2cccc3ccccc32)cc1 | active: 11.2 µM
COc1cc(C(=O)NCc2ccc(OCCN(C)C)cc2)cc(OC)c1OC | active: 6.92 µM
CO[C@]12C[C@@H](COC(=O)c3cncc(Br)c3)CN(C)[C@@H]1Cc1cn(C)c3cccc2c13 | active: 3.47 µM
CNC(=O)O/N=C/C(C)(C)S(C)(=O)=O | active: 17.9 µM and active: 11.2 µM
CNC(=O)O/N=C/C(C)(C)SC | active: 6.39 µM and active: 5.64 µM
CN(C)c1ccc2nc3ccc(=[N+](C)C)cc-3sc2c1 | active: 859 nM and active: 710 nM and active: 1.1 µM
CCOP(=O)(OCC)O/C(=C/Cl)c1ccc(Cl)cc1Cl | active: 2.52 µM
COP(=S)(OC)SCn1nnc2ccccc2c1=O | active: 39.1 µM and active: 28.3 µM
